{
  "source": "patent US9650440B2",
  "about": "“Monoclonal antibodies that specifically block biological activity of a tumor antigen” (Morphotek, Inc., priority 2004, dated 2017)",
  "key": {"[1]": {"tested_on": "human ovarian cancer cells", "experiment": "ADCC assay, human ovarian cancer cells as target and PBMCs as effector cells", "assay_type": "cell-based", "details": "200 ng/ml antibody produced in CHO cells; PBMCs as effector cells", "from_the_text": "The antibodies of the invention preferably induce antibody-dependent cellular cytotoxicity (ADCC) in FR-α bearing cells. ADCC assays are known in the art. The method of the invention enabled successful production of an optimized, humanized anti-FR-α antibody with acceptable antigen binding activity (low nanomolar dissociation constant) and production rates (>10 pg/cell/day)."}, "IGROV-1": {"tested_on": "IGROV-1", "experiment": "Alternative ADCC assay, ^51Cr release, IGROV-1 target cells", "assay_type": "cell-based, human", "details": "for IGROV-I Percentage of ^51Cr release: 10 micrograms/milliliter, 18 hours; for IGROV-I Percentage of specific ^51Cr release: release with antibody minus without antibody", "description": "(§1) In an alternative ADCC assay, the ability of antibody to produce ADCC was evaluated using SKOV-3, IGROV-1, and 1205 Lu (negative control) as target cells, and PBMCs from normal blood donors. Antibody was tested at a concentration of 10 micrograms/milliliter. Donor PBMCs used as effector cells were thawed and kept overnight in medium (IMDM supplemented with 10% FCS). The cells were resuspended in medium at a concentration of 10^7 cells/milliliter. The tumor cells used as target cells were detached from the culture flask and 10^6 cells in 100 microliters FCS were labeled with 100 uCi (3.7 MBq) ^51Cr (Amersham, Buckinghamshire, UK) for 2 hours at 37° C. Cells were washed thrice with 5 milliliters medium and resuspended in medium at a concentration of 10^5 cells/milliliter. Fifty microliters of the tumor cells were seeded in V bottom 96-well plates. Cells were then incubated with 50 microliters medium containing the test antibody or control antibody. After 30 minutes incubation at 37° C., 50 microliters of the PBMCs were seeded in V bottom 96 well plates at various target-effector cell ratios (1:0, 1:25, 1:50, and 1:100) and the plates were further incubated for 18hours at 37° C. The release of ^51Cr in the supernatant was determined in a LKB gamma-counter. Each measurement was carried out in triplicate. The percentage of release was defined as: % release=[(release−spontaneous release)/(maximal release−spontaneous release)]×100. The percentage of specific release was defined as: % specific ^51Cr release=% total ^51Cr release with antibody−% total ^51Cr release without antibody."}, "SKOV-3": {"tested_on": "SKOV-3", "experiment": "Alternative ADCC assay, ^51Cr release, SKOV-3 target cells", "assay_type": "cell-based, human", "details": "for SKOV-3 Percentage of ^51Cr release: 10 micrograms/milliliter, 18 hours; for SKOV-3 Percentage of specific ^51Cr release: release with antibody minus without antibody", "description": "as §1"}, "[2]": {"details": "Patient 1 PBMCs, T:E ratio 1:25"}, "[3]": {"details": "Patient 1 PBMCs, T:E ratio 1:50"}, "[4]": {"details": "Patient 1 PBMCs, T:E ratio 1:100"}, "[5]": {"details": "Patient 2 PBMCs, T:E ratio 1:25"}, "[6]": {"details": "Patient 2 PBMCs, T:E ratio 1:50"}, "[7]": {"details": "Patient 2 PBMCs, T:E ratio 1:100"}},
  "data": [
    {"molecule": "anti-FR-α antibody: humanized anti-FR-α antibody, heavy chain SEQ ID NO:5 and light chain SEQ ID NO:2, expressed in CHO-K1 cells (antibody) heavy: EVQLVESGGGVVQPGRSLRLSCSASGFTFSGYGLSWVRQAPGKGLEWVAMISSGGSYTYYADSVKGRFAISRDNAKNTLFLQMDSLRPEDTGVYFCARHGDDPAWFAYWGQGTPVTVSSASTKGPSVFPLAPSSKSTSGGTAALGCLVKDYFPEPVTVSWNSGALTSGVHTFPAVLQSSGLYSLSSVVTVPSSSLGTQTYICNVNHKPSNTKVDKKV[human IgG1 Fc not written out] light: DIQLTQSPSSLSASVGDRVTITCSVSSSISSNNLHWYQQKPGKAPKPWIYGTSNLASGVPSRFSGSGSGTDYTFTISSLQPEDIATYYCQQWSSYPYMYTFGQGTKVEIKRTVAAPSVFIFPPSDEQLKSGTASVVCLLNNFYPREAKVQWKVDNALQSGNSQESVTEQDSKDSTYSLSSTLTLSKADYEKHKVYACEVTHQGLSSPVTKSFNRGEC", "values": [
      {"measurement": "lysis of target cells", "setting": "[1]", "result": 32, "unit": "%"},
      {"measurement": "ADCC killing of IGROV-1", "setting": "IGROV-1; PBMCs as effector cells, cell line sensitive to killing by PBMCs alone, in words", "result": "mediated killing of IGROV-1"},
      {"measurement": "IGROV-I Percentage of ^51Cr release", "setting": "IGROV-1; Patient 1 PBMCs, T:E ratio 1:0", "result": "−4.1 ± 0.1", "unit": "%"},
      {"measurement": "IGROV-I Percentage of specific ^51Cr release", "setting": "IGROV-1; Patient 1 PBMCs, T:E ratio 1:0", "result": "−1.1 ± 0.2", "unit": "%"},
      {"measurement": "IGROV-I Percentage of ^51Cr release", "setting": "IGROV-1; [2]", "result": "70.2 ± 1.3", "unit": "%"},
      {"measurement": "IGROV-I Percentage of specific ^51Cr release", "setting": "IGROV-1; [2]", "result": "55.3 ± 4.4", "unit": "%"},
      {"measurement": "IGROV-I Percentage of ^51Cr release", "setting": "IGROV-1; [3]", "result": "66.8 ± 7.1", "unit": "%"},
      {"measurement": "IGROV-I Percentage of specific ^51Cr release", "setting": "IGROV-1; [3]", "result": "51.6 ± 9.3", "unit": "%"},
      {"measurement": "IGROV-I Percentage of ^51Cr release", "setting": "IGROV-1; [4]", "result": "65.2 ± 1.2", "unit": "%"},
      {"measurement": "IGROV-I Percentage of specific ^51Cr release", "setting": "IGROV-1; [4]", "result": "41.2 ± 5.3", "unit": "%"},
      {"measurement": "IGROV-I Percentage of ^51Cr release", "setting": "IGROV-1; Patient 2 PBMCs, T:E ratio 1:0", "result": "−10.9 ± 0.2", "unit": "%"},
      {"measurement": "IGROV-I Percentage of specific ^51Cr release", "setting": "IGROV-1; Patient 2 PBMCs, T:E ratio 1:0", "result": "2.4 ± 0.5", "unit": "%"},
      {"measurement": "IGROV-I Percentage of ^51Cr release", "setting": "IGROV-1; [5]", "result": "46.0 ± 1.2", "unit": "%"},
      {"measurement": "IGROV-I Percentage of specific ^51Cr release", "setting": "IGROV-1; [5]", "result": "30.4 ± 4.1", "unit": "%"},
      {"measurement": "IGROV-I Percentage of ^51Cr release", "setting": "IGROV-1; [6]", "result": "64.7 ± 1.3", "unit": "%"},
      {"measurement": "IGROV-I Percentage of specific ^51Cr release", "setting": "IGROV-1; [6]", "result": "41.7 ± 1.9", "unit": "%"},
      {"measurement": "IGROV-I Percentage of ^51Cr release", "setting": "IGROV-1; [7]", "result": "67.8 ± 10.5", "unit": "%"},
      {"measurement": "IGROV-I Percentage of specific ^51Cr release", "setting": "IGROV-1; [7]", "result": "31.0 ± 12.9", "unit": "%"},
      {"measurement": "ADCC killing of SKOV-3", "setting": "SKOV-3; PBMCs as effector cells, in words", "result": "mediated killing of tumor cell line SKOV-3"},
      {"measurement": "SKOV-3 Percentage of ^51Cr release", "setting": "SKOV-3; Patient 1 PBMCs, T:E ratio 1:0", "result": "2.0 ± 0.0", "unit": "%"},
      {"measurement": "SKOV-3 Percentage of specific ^51Cr release", "setting": "SKOV-3; Patient 1 PBMCs, T:E ratio 1:0", "result": "0.7 ± 0.0", "unit": "%"},
      {"measurement": "SKOV-3 Percentage of ^51Cr release", "setting": "SKOV-3; [2]", "result": "36.1 ± 1.4", "unit": "%"},
      {"measurement": "SKOV-3 Percentage of specific ^51Cr release", "setting": "SKOV-3; [2]", "result": "30.8 ± 1.7", "unit": "%"},
      {"measurement": "SKOV-3 Percentage of ^51Cr release", "setting": "SKOV-3; [3]", "result": "46.2 ± 1.0", "unit": "%"},
      {"measurement": "SKOV-3 Percentage of specific ^51Cr release", "setting": "SKOV-3; [3]", "result": "39.4 ± 1.1", "unit": "%"},
      {"measurement": "SKOV-3 Percentage of ^51Cr release", "setting": "SKOV-3; [4]", "result": "61.7 ± 0.2", "unit": "%"},
      {"measurement": "SKOV-3 Percentage of specific ^51Cr release", "setting": "SKOV-3; [4]", "result": "53.7 ± 0.3", "unit": "%"},
      {"measurement": "SKOV-3 Percentage of ^51Cr release", "setting": "SKOV-3; Patient 2 PBMCs, T:E ratio 1:0", "result": "−0.6 ± 0.0", "unit": "%"},
      {"measurement": "SKOV-3 Percentage of specific ^51Cr release", "setting": "SKOV-3; Patient 2 PBMCs, T:E ratio 1:0", "result": "0.8 ± 0.0", "unit": "%"},
      {"measurement": "SKOV-3 Percentage of ^51Cr release", "setting": "SKOV-3; [5]", "result": "31.2 ± 1.0", "unit": "%"},
      {"measurement": "SKOV-3 Percentage of specific ^51Cr release", "setting": "SKOV-3; [5]", "result": "28.6 ± 1.0", "unit": "%"},
      {"measurement": "SKOV-3 Percentage of ^51Cr release", "setting": "SKOV-3; [6]", "result": "43.5 ± 1.3", "unit": "%"},
      {"measurement": "SKOV-3 Percentage of specific ^51Cr release", "setting": "SKOV-3; [6]", "result": "39.0 ± 1.4", "unit": "%"},
      {"measurement": "SKOV-3 Percentage of ^51Cr release", "setting": "SKOV-3; [7]", "result": "56.0 ± 1.0", "unit": "%"},
      {"measurement": "SKOV-3 Percentage of specific ^51Cr release", "setting": "SKOV-3; [7]", "result": "48.4 ± 1.5", "unit": "%"}
    ]}
  ]
}
